Drawing on ChEMBL document CHEMBL5518160, “Progress in the development of TRPV1 small-molecule antagonists: Novel Strategies for pain management” (Eur J Med Chem, 2023), this text covers IC50 for 1 compound.

Protein sequences, listed by entry. Tags and fused reporters are not part of them.
UniProt O35433, whole entry: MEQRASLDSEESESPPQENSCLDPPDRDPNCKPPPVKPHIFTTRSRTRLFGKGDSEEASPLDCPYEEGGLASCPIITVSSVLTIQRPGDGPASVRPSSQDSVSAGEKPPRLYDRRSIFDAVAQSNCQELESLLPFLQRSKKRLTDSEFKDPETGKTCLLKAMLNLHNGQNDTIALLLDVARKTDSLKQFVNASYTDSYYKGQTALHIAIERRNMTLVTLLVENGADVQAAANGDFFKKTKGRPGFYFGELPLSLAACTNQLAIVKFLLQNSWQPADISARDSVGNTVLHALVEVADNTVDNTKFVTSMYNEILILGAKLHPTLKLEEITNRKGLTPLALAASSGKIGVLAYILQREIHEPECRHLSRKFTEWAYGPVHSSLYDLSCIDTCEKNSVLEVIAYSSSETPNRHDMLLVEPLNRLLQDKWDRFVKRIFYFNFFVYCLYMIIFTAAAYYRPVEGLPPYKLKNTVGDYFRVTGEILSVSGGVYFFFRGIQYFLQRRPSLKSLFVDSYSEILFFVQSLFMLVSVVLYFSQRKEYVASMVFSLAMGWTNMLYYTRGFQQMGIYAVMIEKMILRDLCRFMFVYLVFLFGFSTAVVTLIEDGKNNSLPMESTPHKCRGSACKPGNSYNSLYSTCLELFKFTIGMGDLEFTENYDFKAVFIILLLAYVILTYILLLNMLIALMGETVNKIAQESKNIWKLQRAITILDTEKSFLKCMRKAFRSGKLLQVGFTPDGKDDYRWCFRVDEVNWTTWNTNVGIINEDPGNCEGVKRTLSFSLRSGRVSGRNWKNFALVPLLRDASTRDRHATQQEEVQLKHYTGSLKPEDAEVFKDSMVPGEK

In this experiment the target is Transient receptor potential cation channel subfamily V member 1 (Rattus norvegicus, UniProt O35433). As to the kind of experiment: Antagonist activity at rat TRPV1 assessed as inhibition of pH-induced increase in intracellular Ca2+ level. Format: cell-based.

The term IC50 denotes the point on the concentration scale where inhibition reaches its midpoint.

Turning to `CC(C)(C)c1ccc(NC(=O)N2CCN(c3ncccc3Cl)CC2)cc1`, the half-maximal inhibitory concentration (IC50) was 6 nM.
